{"source": "paper PMC6271009", "about": "“Design and Synthesis of Thiazolo[5,4-f]quinazolines as DYRK1A Inhibitors, Part II” (Molecules, 2014)", "key": {"DYRK1A": {"target": "T1, DYRK1A (Homo sapiens, UniProt Q13627)", "T1 construct": "Purified recombinant kinase was incubated with serial 3-fold dilutions of test compounds; purchased Reaction Biology Corporation", "assay": "DYRK1A kinase assay, Reaction Biology Corporation HotSpot technology (33P ATP)", "format": "biochemical", "conditions": "purified recombinant kinase, 10 µM ATP, 120 min, room temperature"}, "DYRK1B": {"target": "DYRK1B (Homo sapiens, UniProt Q9Y463)", "assay": "DYRK1B kinase assay, Reaction Biology Corporation HotSpot technology (33P ATP)"}}, "data": [{"compound": "COC(=N)c1nc2ccc3ncnc(Nc4ccc5nc[nH]c5c4)c3c2s1", "note": "[Compound 9g, Methyl 9-(1H-benzo[d]imidazol-6-ylamino)thiazolo[5,4-f]quinazoline-2-carbimidate]", "values": [{"measurement": "IC50", "setting": "DYRK1A", "value": 4.44, "unit": "nM"}, {"measurement": "IC50", "setting": "DYRK1B", "value": 4.65, "unit": "nM"}]}]}
